Results published in patent US4943573A, “Imidazo[4,5-b]quinolinyloxyalkanoic acid amides with enhanced water solubility” (Bristol-Myers Squibb Company, priority 1989, dated 1990).

Amino acid sequences for entries named in this document (tags omitted). A change or cut given only in a name is not applied to a line headed by its entry.
UniProt Q14432: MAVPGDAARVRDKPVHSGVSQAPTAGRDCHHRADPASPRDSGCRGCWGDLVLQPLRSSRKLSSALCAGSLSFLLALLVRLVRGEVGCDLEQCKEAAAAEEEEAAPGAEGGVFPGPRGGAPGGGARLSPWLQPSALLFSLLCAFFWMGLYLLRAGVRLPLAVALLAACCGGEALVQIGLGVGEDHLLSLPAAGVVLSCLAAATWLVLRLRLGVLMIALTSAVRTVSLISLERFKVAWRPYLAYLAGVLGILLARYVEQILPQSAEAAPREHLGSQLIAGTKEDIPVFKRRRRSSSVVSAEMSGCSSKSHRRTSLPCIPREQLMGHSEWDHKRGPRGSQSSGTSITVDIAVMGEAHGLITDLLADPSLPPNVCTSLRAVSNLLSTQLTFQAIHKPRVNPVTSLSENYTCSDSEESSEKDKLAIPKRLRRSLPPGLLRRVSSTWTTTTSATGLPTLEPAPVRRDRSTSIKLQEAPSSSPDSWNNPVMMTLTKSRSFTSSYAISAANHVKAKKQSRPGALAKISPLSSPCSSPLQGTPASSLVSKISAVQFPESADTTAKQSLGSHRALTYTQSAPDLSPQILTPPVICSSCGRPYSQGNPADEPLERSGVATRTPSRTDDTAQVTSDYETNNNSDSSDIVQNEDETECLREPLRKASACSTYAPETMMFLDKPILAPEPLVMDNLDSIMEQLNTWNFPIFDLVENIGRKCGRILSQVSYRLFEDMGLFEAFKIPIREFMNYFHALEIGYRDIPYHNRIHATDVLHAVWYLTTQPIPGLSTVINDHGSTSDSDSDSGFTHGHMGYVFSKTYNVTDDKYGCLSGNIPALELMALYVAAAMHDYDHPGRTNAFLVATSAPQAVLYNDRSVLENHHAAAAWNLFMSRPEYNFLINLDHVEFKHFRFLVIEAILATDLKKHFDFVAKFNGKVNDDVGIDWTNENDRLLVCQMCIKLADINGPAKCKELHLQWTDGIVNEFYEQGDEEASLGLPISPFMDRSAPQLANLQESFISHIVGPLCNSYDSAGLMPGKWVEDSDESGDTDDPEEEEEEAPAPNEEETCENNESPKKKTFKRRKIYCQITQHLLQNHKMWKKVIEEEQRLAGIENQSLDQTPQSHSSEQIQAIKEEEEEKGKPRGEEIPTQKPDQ

Target: T1, cyclic AMP phosphodiesterase (PDE) enzyme obtained from human platelets (Homo sapiens, UniProt Q14432)
T1 construct: phosphodiesterase (PDE) enzyme obtained from human platelets; from tissue; host or cells: human platelets
Experiment: inhibition of cyclic AMP phosphodiesterase
Type: biochemical
Method: This assay is carried out essentially as described by Thompson, et al., Methods in Enzymology, 38, […] (1974). Briefly, tritium labeled cyclic adenosine monophosphate (cAMP) is incubated with a phosphodiesterase (PDE) enzyme obtained from human platelets which converts a portion of the cAMP to 5'AMP in culture tubes. This reaction is terminated by submerging the tubes in a boiling water bath after which they are placed on ice and an aliquot of snake venom is added to each tube. This, during a second incubation, converts the 5'AMP to adenosine. Ion exchange resin is added to bind the remaining cyclic AMP. The tubes are centrifuged to sediment the resin and a portion of the clear supernatent (which contains radioactive adenosine) is counted in a liquid scintillation counter. The cAMP phosphodiesterase inhibition activity of a test agent is determined by pre-incubating the PDE enzyme preparation with the test agent. Dose response values are obtained and activity of the test agent reported as the molar (M) concentration of the test agent inhibition 50% of the PDE activity (IC50 s).

**Q.** How did the IC50 turn out when `Cn1c(=O)c2[nH]cnc2n(C)c1=O` [Theophylline, reference compound] was run?
**A.** 100 µM
